Experimental data: patent US10010535B2, “Desferrithiocin analogs and uses thereof” (University of Florida Research Foundation, Incorporated, priority 2013, dated 2018)
Read-outs that look alike come from different tables or passages of the source.

Key:
iron excretion [1] = settings: po 300 μmol/kg, monosodium salt, cited from earlier work
iron excretion [2] = settings: po 150 μmol/kg, cited from earlier work
iron excretion [3] = assay: Iron-clearing efficiency in iron-overloaded primates (fecal and urine samples); type: in vivo, Cebus apella monkeys; settings: po 75 μmol/kg, monosodium salt
Method: At least 20 half-lives, 60 days (Wood et al., “The Metabolism of Iron-Dextran Given As a Total-Dose Infusion to Iron Deficient Jamaican Subjects.” Br. J. Hamaetol. 1968, 14, 119-129), elapsed before any of the animals were used in experiments evaluating iron-chelating agents.
Briefly, the collections began 4 days prior to the administration of the test compound and continued for an additional 5 days after the compound was given. Iron concentrations were determined by flame absorption spectroscopy as presented in other publications (Bergeron et al., “A Comparative Evaluation of Iron Clearance Models.” Ann. N.Y. Acad. Sci. 1990, 612, 378-393; Bergeron et al., “Synthesis and Biological Evaluation of Naphthyldesferrithiocin Iron Chelators.” J. Med. Chem. 1996, 39, 1575-1581).
In the text below, the term “iron-clearing efficiency” (ICE) is used as a measure of the amount of iron excretion induced by a chelator. The ICE, expressed as a percent, is calculated as (compound-induced iron excretion/theoretical iron excretion)×100. To illustrate, the theoretical iron excretion after administration of one millimole of desferrioxamine B mesylate (DFO) (FIG. 3), a hexadentate chelator that forms a 1:1 complex with Fe(III), is one milli-g-atom of iron. […]

SMILES	Rodent Iron-Clearing Efficiency (%) (iron excretion [1])	relative percentages of the iron excreted in the bile and urine (iron excretion [1]; rodents, bile/urine)	Primate Iron-Clearing Efficiency (%) (iron excretion [2])	relative percentages of the iron excreted in the feces and urine (iron excretion [2]; primates, feces/urine)	Primate Iron-Clearing Efficiency (%) (iron excretion [3])	relative percentages of the iron excreted in the feces and urine (iron excretion [3]; primates, feces/urine)
C[C@]1(C(=O)O)CSC(c2ccc(O)cc2O)=N1 [compound 3]	1.1±0.8%	100/0	16.8±7.2%	88/12	–	–
C[C@]1(C(=O)O)CSC(c2ncc(O)cc2O)=N1 [I-1, (S)-4,5-Dihydro-2-(3,5-dihydroxy-2-pyridinyl)-4-methyl-4-thiazolecarboxylic Acid]	–	–	–	–	10.0±2.9%	58/42
